Measurements taken from patent US6107076A, “Soluble mammalian adenylyl cyclase and uses therefor” (Board of Regents, The University of Texas System, priority 1996, dated 2000).

Sequences of proteins named here, by UniProt entry; tags and fusion partners are left off. A change or cut given only in a name is not applied to a line headed by its entry.
UniProt P26769: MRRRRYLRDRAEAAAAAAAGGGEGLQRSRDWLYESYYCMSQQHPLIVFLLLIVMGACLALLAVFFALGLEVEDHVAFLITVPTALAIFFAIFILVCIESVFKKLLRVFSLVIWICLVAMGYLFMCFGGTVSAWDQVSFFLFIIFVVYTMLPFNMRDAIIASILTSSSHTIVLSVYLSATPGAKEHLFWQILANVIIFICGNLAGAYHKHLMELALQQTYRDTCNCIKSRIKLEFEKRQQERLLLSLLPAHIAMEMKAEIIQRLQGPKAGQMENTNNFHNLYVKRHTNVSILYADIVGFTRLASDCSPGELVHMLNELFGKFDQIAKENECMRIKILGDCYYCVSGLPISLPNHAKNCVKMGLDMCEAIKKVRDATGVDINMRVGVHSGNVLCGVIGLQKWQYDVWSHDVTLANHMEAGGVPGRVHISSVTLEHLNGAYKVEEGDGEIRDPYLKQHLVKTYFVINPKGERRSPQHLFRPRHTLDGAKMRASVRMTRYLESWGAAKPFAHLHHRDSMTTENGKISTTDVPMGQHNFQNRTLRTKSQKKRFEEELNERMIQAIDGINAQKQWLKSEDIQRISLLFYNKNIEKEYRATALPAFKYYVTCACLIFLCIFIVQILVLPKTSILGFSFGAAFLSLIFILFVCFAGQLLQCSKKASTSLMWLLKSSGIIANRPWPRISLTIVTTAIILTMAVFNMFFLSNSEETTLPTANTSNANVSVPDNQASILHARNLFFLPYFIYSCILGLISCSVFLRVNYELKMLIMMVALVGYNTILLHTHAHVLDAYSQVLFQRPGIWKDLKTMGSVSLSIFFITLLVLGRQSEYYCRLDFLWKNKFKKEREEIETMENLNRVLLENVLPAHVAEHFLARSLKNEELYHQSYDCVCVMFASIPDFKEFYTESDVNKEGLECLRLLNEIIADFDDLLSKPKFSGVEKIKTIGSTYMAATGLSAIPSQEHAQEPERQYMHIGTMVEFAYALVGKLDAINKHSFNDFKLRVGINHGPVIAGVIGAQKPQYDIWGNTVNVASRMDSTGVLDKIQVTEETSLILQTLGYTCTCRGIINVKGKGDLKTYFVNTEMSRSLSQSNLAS

Molecular target: T1, soluble adenylyl cyclase chimera IC1 IIC2 -L3 (C1a of type I adenylyl cyclase, residues 271-484, linked to C2a of type II adenylyl cyclase, residues 821-1090) (UniProt P19754+P26769)
T1 construct: IC1a includes residues 271-484 of type I adenylyl cyclase; IIC2a includes residues 821-1090 of type II adenylyl cyclase; made in house; host or cells: E. coli TP2000 (150,000 g supernatant)
T1 sequence (P19754+P26769 with tags, fused parts or gaps): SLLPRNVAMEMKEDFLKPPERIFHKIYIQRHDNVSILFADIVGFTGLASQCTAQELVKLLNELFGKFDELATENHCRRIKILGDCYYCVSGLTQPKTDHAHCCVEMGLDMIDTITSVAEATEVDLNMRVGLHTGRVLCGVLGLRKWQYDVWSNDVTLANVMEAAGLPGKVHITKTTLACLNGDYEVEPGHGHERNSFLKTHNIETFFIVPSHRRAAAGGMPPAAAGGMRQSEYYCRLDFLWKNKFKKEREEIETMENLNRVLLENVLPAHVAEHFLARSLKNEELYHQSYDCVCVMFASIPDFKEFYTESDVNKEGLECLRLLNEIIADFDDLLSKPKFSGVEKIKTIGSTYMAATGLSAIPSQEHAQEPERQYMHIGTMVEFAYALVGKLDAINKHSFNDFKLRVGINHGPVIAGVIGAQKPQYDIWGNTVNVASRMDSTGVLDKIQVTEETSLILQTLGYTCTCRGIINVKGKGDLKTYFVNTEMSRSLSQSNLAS
Test: Adenylyl cyclase activity of 150,000 g supernatant from E. coli expressing IC1 IIC2 -L3
Format: biochemical, mammalian
Conditions: forskolin plus GTP-γ-S-Gα
Procedure: FIG. 2--Enzyme activity of chimeras.
Data shown are representative of at least two studies.
E. coli that contained the desired plasmids were grown in LB plus 50 μM carbenicillin to OD600 =0.3. Isopropyl-β-D-thiogalactopyranoside(100 μM) and chloramphenicol (0.5 μM) were added to induce expression of adenylyl cyclase for 12 hours. Bacteria were then collected by centrifugation at 4° C. and lysed by incubation at 4° C. for 30 min in 20 mM Tris-HCl (pH 8.0), 1 mM EDTA, 2 mM dithiothreitol (DTT) and protease inhibitors with 0.1 mg/ml of lysozyme. The suspension was sonicated briefly (3×20 sec) during incubation. The lysate was centrifuged (4° C.) at 150,000×g for 30 min, and the supernatant was recovered.
The inventors examined adenylyl cyclase activity in vitro in 150,000 g supernatant fractions from E. coli […] transformed with the various constructs. […] Ca^2+ -calmodulin had no detectable effect on activity, and lysates from cells expressing either IC1 or IIC2 had little adenylyl cyclase activity.
However, the maximal stimulatory effect of the G protein α subunit exceeded that of forskolin (FIG. 4). […] Synergistic activation of the enzyme was thus not due to alternation of apparent substrate affinity.

SMILES: Nc1ncnc2c1ncn2[C@@H]1O[C@H](COP(=O)(O)OP(=O)(O)OP(=O)(O)O)[C@@H](O)[C@H]1O [ATP]
- Km for ATP, effect of adding GTP-γ-S-Gα in the presence of forskolin: did not change the Km
